Test results as given in patent publication US10183928B2, “Inhibitors of RET” (BLUEPRINT MEDICINES CORPORATION, priority 2016, dated 2019).

By UniProt entry, the sequences of proteins in these tests, tags left out. Residues count along the entry.
UniProt P07949, 29-1114 V804L: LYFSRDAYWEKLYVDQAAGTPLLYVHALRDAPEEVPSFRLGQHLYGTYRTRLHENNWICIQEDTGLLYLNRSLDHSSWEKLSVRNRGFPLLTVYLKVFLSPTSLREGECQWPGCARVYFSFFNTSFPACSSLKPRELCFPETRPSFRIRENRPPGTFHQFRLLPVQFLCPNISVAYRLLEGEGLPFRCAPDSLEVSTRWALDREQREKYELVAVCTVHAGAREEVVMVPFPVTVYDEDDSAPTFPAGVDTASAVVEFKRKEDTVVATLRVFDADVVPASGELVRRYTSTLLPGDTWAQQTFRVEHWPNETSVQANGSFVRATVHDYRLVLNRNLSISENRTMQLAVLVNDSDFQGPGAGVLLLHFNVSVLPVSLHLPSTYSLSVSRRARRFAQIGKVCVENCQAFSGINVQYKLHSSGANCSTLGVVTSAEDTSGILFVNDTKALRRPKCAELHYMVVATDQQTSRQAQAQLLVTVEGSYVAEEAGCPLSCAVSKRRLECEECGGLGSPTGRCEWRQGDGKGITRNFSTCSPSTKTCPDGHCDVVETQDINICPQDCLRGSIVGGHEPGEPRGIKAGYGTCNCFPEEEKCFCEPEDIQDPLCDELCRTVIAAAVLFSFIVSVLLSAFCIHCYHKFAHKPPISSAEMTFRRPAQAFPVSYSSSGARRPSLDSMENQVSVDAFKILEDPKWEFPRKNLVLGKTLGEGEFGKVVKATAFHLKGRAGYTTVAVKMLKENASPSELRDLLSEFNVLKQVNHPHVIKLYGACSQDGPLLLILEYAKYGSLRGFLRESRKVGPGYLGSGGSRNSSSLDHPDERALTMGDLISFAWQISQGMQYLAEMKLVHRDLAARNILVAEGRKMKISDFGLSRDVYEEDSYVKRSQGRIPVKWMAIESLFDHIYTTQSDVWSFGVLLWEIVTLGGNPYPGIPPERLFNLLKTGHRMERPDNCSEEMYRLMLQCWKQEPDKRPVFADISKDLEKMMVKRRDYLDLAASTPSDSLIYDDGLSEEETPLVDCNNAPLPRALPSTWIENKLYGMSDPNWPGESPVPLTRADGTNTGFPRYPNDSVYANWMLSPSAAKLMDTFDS

Molecular target: RET V804L (Homo sapiens (Human), UniProt P07949, V804L)
Test: RET V804L Gatekeeper Mutant Assay at KM (Caliper electrophoretic mobility shift)
Format: biochemical
Details: 10 μM ATP, 25° C., 120 minutes; read-out: V804L Mutant (RET Inhibitory Activity)

IC50 [nM]	SMILES
≤ 1	Cc1cc(Nc2cc(C)[nH]n2)nc([C@H]2C[C@H](C(=O)NCc3ccc(-n4cccn4)nc3)C2)c1 [Compound 100]
≤ 1	Cc1cc(Nc2cc(C)[nH]n2)nc([C@H]2C[C@H](C(=O)N[C@H](C)c3ccc(-n4cccn4)nc3)C2)c1 [Compound 101]
≤ 1	Cc1cc(Nc2cc(C)[nH]n2)nc([C@H]2C[C@H](C(=O)N[C@@H](C)c3ccc(-n4cc(F)cn4)nc3)C2)c1 [Compound 102]
1.01 to 10	Cc1cc(Nc2cc(C)[nH]n2)nc([C@H]2C[C@@H](C(=O)N[C@@H](C)c3ccc(-n4cc(F)cn4)nc3)C2)c1 [Compound 103]
≤ 1	Cc1cc(Nc2cc(C)[nH]n2)nc([C@H]2C[C@H](C(=O)N[C@H](C)c3cnc(-n4cc(F)cn4)cn3)C2)c1 [Compound 104]
≤ 1	Cc1cc(Nc2cc(C)[nH]n2)nc([C@H]2C[C@H](C(=O)N[C@@H](C)c3ccc(-n4cc(F)cn4)nc3)C2)n1 [Compound 105]
1.01 to 10	Cc1cc(Nc2cc(C)[nH]n2)nc([C@H]2C[C@@](C)(C(=O)N[C@@H](C)c3ccc(-n4cc(F)cn4)nc3)C2)n1 [Compound 107, (1S,3R)—N—((S)-1-(6-(4-fluoro-1H-pyrazol-1-yl)pyridin-3-yl)ethyl)-1-methyl-3-(4-methyl-6-((5-methyl-1H-pyrazol-3-yl)amino)pyrimidin-2-yl)cyclobutane-1-carboxamide]
≤ 1	Cc1cc(Nc2cc(C)[nH]n2)nc([C@H]2C[C@](C)(C(=O)N[C@@H](C)c3ccc(-n4cc(F)cn4)nc3)C2)n1 [Compound 108, (1R,3S)—N—((S)-1-(6-(4-fluoro-1H-pyrazol-1-yl)pyridin-3-yl)ethyl)-1-methyl-3-(4-methyl-6-((5-methyl-1H-pyrazol-3-yl)amino)pyrimidin-2-yl)cyclobutane-1-carboxamide]
≤ 1	Cc1cc(Nc2cc(C)[nH]n2)nc([C@]2(O)C[C@@H](C(=O)N[C@@H](C)c3ccc(-n4cc(F)cn4)nc3)C2)c1 [Compound 109]
≤ 1	Cc1cc(Nc2cc(C)[nH]n2)nc([C@H]2C[C@](C)(C(=O)N[C@@H](C)c3cnc(-n4cc(F)cn4)cn3)C2)n1 [Compound 110]
10 to 100	Cc1cc(Nc2cc(C)[nH]n2)nc([C@]2(F)C[C@H](C(=O)N[C@@H](C)c3ccc(-n4cc(F)cn4)nc3)C2)c1 [Compound 113, (1S,3R)-3-fluoro-N—((S)-1-(6-(4-fluoro-1H-pyrazol-1-yl)pyridin-3-yl)ethyl)-3-(4-methyl-6-(5-methyl-1H-pyrazol-3-ylamino)pyridin-2-yl)cyclobutanecarboxamide]
1.01 to 10	Cc1cc(Nc2cc(C)[nH]n2)nc([C@]2(F)C[C@@H](C(=O)N[C@@H](C)c3ccc(-n4cc(F)cn4)nc3)C2)c1 [Compound 114]
1.01 to 10	Cc1cc(Nc2cc(C)[nH]n2)nc([C@]2(O)C[C@@H](C(=O)N(C)[C@@H](C)c3ccc(-n4cc(F)cn4)nc3)C2)c1 [Compound 116]
10 to 100	CO[C@]1(c2cc(C)cc(Nc3cc(C)[nH]n3)n2)C[C@H](C(=O)N[C@@H](C)c2ccc(-n3cc(F)cn3)nc2)C1 [Compound 117, (1S,3R)—N—((S)-1-(6-(4-fluoro-1H-pyrazol-1-yl)pyridin-3-yl)ethyl)-3-methoxy-3-(4-methyl-6-((5-methyl-1H-pyrazol-3-yl)amino)pyridin-2-yl)cyclobutane-1-carboxamide]
< 100	Cc1cc(Nc2cc(C)[nH]n2)nc([C@]2(O)C[C@](C)(C(=O)N[C@@H](C)c3ccc(-n4cc(F)cn4)nc3)C2)c1 [Compound 118]
≤ 1	Cc1cc(Nc2cc(C)[nH]n2)nc([C@]2(O)C[C@@](C)(C(=O)N[C@@H](C)c3ccc(-n4cc(F)cn4)nc3)C2)c1 [Compound 119]
≤ 1	CO[C@]1(C(=O)N[C@@H](C)c2ccc(-n3cc(F)cn3)nc2)C[C@H](c2cc(C)cc(Nc3cc(C)[nH]n3)n2)C1 [Compound 120]
≤ 1	CO[C@]1(C(=O)N[C@@H](C)c2ccc(-n3cc(F)cn3)nc2)C[C@H](c2nc(C)cc(Nc3cc(C)[nH]n3)n2)C1 [Compound 121]
≤ 1	CO[C@]1(C(=O)N[C@@H](C)c2ccc(-n3cc(F)cn3)nc2)C[C@H](c2cc(C)nc(Nc3cc(C)[nH]n3)n2)C1 [Compound 122]
≤ 1	CO[C@]1(C(=O)N[C@@H](C)c2cnc(-n3cc(F)cn3)cn2)C[C@H](c2nc(C)cc(Nc3cc(C)[nH]n3)n2)C1 [Compound 123]
≤ 1	CO[C@]1(C(=O)N[C@@H](C)c2cnc(-n3cc(F)cn3)cn2)C[C@H](c2cc(C)nc(Nc3cc(C)[nH]n3)n2)C1 [Compound 124]
< 100	Cc1cc(Nc2cc(C)[nH]n2)nc([C@]2(F)C[C@](C)(C(=O)N[C@@H](C)c3ccc(-n4cc(F)cn4)nc3)C2)c1 [Compound 126]
≤ 1	CO[C@]1(C(=O)N[C@@H](C)c2ccc(-n3cc(F)cn3)nc2)C[C@](O)(c2cc(C)cc(Nc3cc(C)[nH]n3)n2)C1 [Compound 127]
< 100	CO[C@]1(C(=O)N[C@@H](C)c2ccc(-n3cc(F)cn3)nc2)C[C@@](O)(c2cc(C)cc(Nc3cc(C)[nH]n3)n2)C1 [Compound 128]
